The target of this experiment is HIV-1 integrase / human LEDGF/p75 complex. Kind of experiment: inhibitors of HIV-1 IN-LEDGF/p75 DNA integration, dose response, biochemical, TR-FRET (AID 1053172). A general note: TR-FRET usually uses a lanthanide donor and a delayed reading to cut background.

The IC50 is the midpoint of a concentration-inhibition curve. Consider `Oc1ccc(/C=N/NC(=S)Nc2cccnc2)c(O)c1O`, for which the IC50 is 804 nM.
